Experiments:
[1] = test system: patients with essential tremor; assay: T-CALM: Patient Global Impression of Change (PGIC); type: in vivo, human; conditions: Day 15
Source text: Global rating of change (GRC) scales were designed to quantify a patient's improvement or deterioration over time, usually either to determine the effect of an intervention or to chart the clinical course of a condition. GRC scales ask a patient to assess his or her current health status, recall that status at the beginning of treatment, and then calculate the difference between the two. The simplicity of GRC scales makes them easy to administer and applicable to a wide range of patients (see, e.g., Kamper et al., 2009 The Journal of Manual & Manipulative Therapy 17(3):163-170).
Treatment success as measured by PGIC was summarized using descriptive statistics.

Protein sequences, listed by entry. Tags and fused reporters are not part of them.
UniProt Q9P0X4, whole entry, species assumed: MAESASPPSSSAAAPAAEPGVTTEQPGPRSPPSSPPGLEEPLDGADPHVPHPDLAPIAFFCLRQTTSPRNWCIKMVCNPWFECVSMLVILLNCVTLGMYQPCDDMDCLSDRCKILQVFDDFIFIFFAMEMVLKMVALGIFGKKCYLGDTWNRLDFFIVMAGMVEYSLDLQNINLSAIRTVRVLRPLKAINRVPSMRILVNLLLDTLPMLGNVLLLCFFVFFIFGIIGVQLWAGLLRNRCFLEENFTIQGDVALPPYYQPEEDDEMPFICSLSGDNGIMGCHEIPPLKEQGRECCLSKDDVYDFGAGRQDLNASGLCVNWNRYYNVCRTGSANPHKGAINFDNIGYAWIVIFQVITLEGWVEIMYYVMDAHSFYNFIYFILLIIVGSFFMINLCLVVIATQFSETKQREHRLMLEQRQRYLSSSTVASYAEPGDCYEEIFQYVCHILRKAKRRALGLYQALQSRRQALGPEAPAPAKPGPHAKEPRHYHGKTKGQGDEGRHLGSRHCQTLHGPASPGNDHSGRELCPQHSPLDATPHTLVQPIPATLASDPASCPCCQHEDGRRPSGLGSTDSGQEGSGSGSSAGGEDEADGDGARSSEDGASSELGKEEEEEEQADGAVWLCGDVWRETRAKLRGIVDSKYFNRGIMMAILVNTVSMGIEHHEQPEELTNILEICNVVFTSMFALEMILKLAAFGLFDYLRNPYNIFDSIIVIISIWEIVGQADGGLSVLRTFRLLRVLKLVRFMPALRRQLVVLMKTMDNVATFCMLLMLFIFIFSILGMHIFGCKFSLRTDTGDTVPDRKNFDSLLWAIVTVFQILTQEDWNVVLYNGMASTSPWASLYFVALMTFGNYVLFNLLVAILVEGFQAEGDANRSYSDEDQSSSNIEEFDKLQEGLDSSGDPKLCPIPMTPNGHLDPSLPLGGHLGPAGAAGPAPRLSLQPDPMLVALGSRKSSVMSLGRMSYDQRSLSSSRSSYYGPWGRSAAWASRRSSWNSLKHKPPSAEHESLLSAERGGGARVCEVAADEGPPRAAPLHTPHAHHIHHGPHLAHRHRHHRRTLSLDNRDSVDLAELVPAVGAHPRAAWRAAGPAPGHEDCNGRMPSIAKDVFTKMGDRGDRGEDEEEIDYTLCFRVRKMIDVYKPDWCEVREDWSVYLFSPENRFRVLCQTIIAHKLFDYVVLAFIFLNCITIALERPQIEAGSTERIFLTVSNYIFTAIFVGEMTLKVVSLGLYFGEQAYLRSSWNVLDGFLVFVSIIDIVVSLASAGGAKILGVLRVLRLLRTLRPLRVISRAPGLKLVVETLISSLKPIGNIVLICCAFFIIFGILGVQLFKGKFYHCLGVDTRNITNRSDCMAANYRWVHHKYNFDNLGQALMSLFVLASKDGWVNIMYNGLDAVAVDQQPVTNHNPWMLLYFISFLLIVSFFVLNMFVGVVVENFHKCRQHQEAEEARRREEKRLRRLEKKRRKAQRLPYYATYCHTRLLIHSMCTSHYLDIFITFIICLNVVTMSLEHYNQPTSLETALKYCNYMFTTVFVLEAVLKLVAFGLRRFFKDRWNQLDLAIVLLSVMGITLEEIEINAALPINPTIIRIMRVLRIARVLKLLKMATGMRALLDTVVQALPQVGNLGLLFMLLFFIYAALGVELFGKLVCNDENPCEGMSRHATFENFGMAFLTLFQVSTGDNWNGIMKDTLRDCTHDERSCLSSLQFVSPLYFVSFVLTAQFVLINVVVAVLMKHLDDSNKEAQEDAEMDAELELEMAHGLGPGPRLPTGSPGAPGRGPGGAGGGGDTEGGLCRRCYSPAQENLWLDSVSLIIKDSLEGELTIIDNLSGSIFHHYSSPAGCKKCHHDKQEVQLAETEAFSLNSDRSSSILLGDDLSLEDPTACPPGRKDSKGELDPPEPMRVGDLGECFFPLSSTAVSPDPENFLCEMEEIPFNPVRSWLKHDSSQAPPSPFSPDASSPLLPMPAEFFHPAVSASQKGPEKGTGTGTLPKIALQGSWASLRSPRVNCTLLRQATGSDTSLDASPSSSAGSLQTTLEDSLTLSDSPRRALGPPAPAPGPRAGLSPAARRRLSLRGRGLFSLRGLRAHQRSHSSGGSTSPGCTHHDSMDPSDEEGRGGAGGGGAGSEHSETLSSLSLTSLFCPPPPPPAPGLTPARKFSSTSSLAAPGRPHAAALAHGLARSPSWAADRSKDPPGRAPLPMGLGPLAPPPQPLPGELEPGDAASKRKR

[2] = MR2 capsules fed versus fasted PK; type: in vivo; conditions: human, plasma, oral, 8 mg, single dose (1×8 mg) of MR2 CX-8998
[3] = molecular target: T1, Cav3.3 (Homo sapiens, UniProt Q9P0X4); assay: Cav3.3 FLIPR calcium influx assay (HEK 293 cells); type: cell-based; conditions: hyperpolarized versus depolarized FLIPR potency
T1 construct: expressed in transfected cells; host or cells: HEK 293

[4] = test system: airway resistance; assay: Airway resistance in anesthetized male rats, IV; type: in vivo, rat; conditions: 6 mg/kg IV
[5] = Pharmacokinetics in rats; type: in vivo, rat
[6] = Pharmacokinetics in dogs; type: in vivo, dog
[7] = Pharmacokinetics in rhesus monkeys; type: in vivo; conditions: rhesus monkey, plasma, po, 20 mg/kg; single dose
[8] = molecular target: T2, Cav3 (Homo sapiens, UniProt Q9P0X4); assay: Cav3 potency and state dependency, summary of Cav3 antagonist pharmacological properties; type: cell-based
T2 construct: rows headed: State dependency

[9] = Beagle dog, 10-day, 3, 30 and 300 mg/kg/day escalating oral doses; any dose
[10] = in vivo; conditions: female, rat, po
[11] = in vivo; conditions: female, rat, po, 10 mg/kg/day
[12] = in vivo; conditions: rat, po
[13] = in vivo; conditions: Beagle, dog, po
[14] = in vivo; conditions: Beagle, dog, plasma, po
[15] = 4-week oral toxicology in Beagle dogs; conditions: mean
[16] = 90-day oral toxicology in Beagle dogs
[17] = 4-week oral toxicology in rats (with FOB); conditions: rat, plasma
[18] = Female dogs, 2 mg/kg/day oral gavage, Day 28
[19] = Female dogs, 20 mg/kg/day oral gavage, Day 28
[20] = Female dogs, 800 mg/kg/day oral gavage, Day 28
[21] = Male dogs, 2 mg/kg/day oral gavage, Day 28
[22] = Male dogs, 20 mg/kg/day oral gavage, Day 28
[23] = Male dogs, 800 mg/kg/day oral gavage, Day 1
[24] = Male dogs, 800 mg/kg/day oral gavage, Day 28
[25] = Female dogs, 100/300 mg/kg/day oral gavage, Day 90, mean
[26] = Male dogs, 100/300 mg/kg/day oral gavage, Day 90, mean
[27] = female, Beagle, dog, in vivo, po, 30 mg/kg/day
[28] = male, Beagle, dog, in vivo, po, 10 mg/kg/day
[29] = male, beagle, dog, in vivo, po, 30 mg/kg/day

## CC(C)c1ccc(CC(=O)N[C@H](C)c2ccc(OCC(F)(F)F)cn2)cc1 [CX-8998]
[1]
  PGIC Improved, number: 26
[2]
  AUC: 6.79 µM·h
[3]
  State dependence: 45 fold
[4]
  Airway resistance: No change in airway resistance
[5]; Rat, oral 10 mg/kg, mean (SD)
  Cmax: 3.5 µM
[5]; plasma, Rat, oral 10 mg/kg, mean (SD), read-out: Tmax
  Tmax: 0.5 h
[5]; rodents
  AUClast: 6.3 µM·h
  Cmax: 3.5 µM
  Tmax: 0.5 h
[6]; Dog, IV […], mean (SD), 3 animals
  CL: 1.5 (0.4) mL/min/kg
[6]; dog, in vivo
  Plasma clearance: 1.5 mL/min/kg
[7]
  bioavailability: < 3%
[8]
  State dependency: 45 fold
[9]
  treatment-related findings: No treatment-related findings were
Female rats, 300 mg/kg/day
  Day 90 Free Plasma Cmax at NOAEL for Rat 90-Day Toxicology: 423 nM
Male dogs, 30 mg/kg/day
  Day 90 Free Plasma Cmax at NOAEL for Dog 90-Day Toxicology: 118 nM
[10]; 10 mg/kg/day
  Cmax: 5.2 µM
[10]; 100 mg/kg/day
  Cmax: 14.7 µM
[10]; 500 mg/kg/day
  Cmax: 24 µM
[11]
  AUC: 13.1 µM·h
  Cmax: 5.91 µM
[12]; female, 5 mg/kg/day
  AUC: 5.41 µM·h
  Cmax: 2.9 µM
[12]; female, 15 mg/kg/day
  AUC: 26.6 µM·h
  Cmax: 6.4 µM
[12]; female, 100 mg/kg/day
  AUC: 554 µM·h
  Cmax: 41 µM
[12]; female, 300 mg/kg/day
  AUC: 566 µM·h
  Cmax: 52.9 µM
[12]; male, 5 mg/kg/day
  AUC: 3.85 µM·h
  Cmax: 1.41 µM
[12]; male, 15 mg/kg/day
  AUC: 12.1 µM·h
  Cmax: 5.41 µM
[12]; male, 100 mg/kg/day
  AUC: 170 µM·h
  Cmax: 29.1 µM
[12]; male, 300 mg/kg/day
  AUC: 261 µM·h
  Cmax: 22.5 µM
[13]; female, 3 mg/kg/day
  AUC: 52.3 µM·h
  Cmax: 5.9 µM
[13]; female, 30 mg/kg/day
  AUC: 933 µM·h
  Cmax: 58.5 µM
  Tmax: 4 h
[13]; female, 300 mg/kg/day
  Tmax: 4 h
[13]; male, 30 mg/kg/day
  AUC: 708 µM·h
[13]; male, 300 mg/kg/day
  AUC: 1810 µM·h
[14]; female, 2 mg/kg/day
  AUC: 40.8 µM·h
  Cmax: 5.98 µM
[14]; female, 20 mg/kg/day
  AUC: 510 µM·h
  Cmax: 49.7 µM
[14]; female, 800 mg/kg/day
  AUC: 1650 µM·h
  Cmax: 105 µM
[14]; male, 2 mg/kg/day
  AUC: 48.2 µM·h
  Cmax: 13.4 µM
[14]; male, 20 mg/kg/day
  Cmax: 49.4 µM
[15]; [18]
  AUC24: 42.7 µM·h
  Cmax: 6.42 µM
  Tmax: 0.83 h
[15]; [19]
  AUC24: 372 µM·h
  Cmax: 39.8 µM
[15]; Female dogs, 800 mg/kg/day oral gavage, Day 1
  Tmax: 12 h
[15]; [20]
  AUC24: 890 µM·h
  Cmax: 59.1 µM
  Tmax: 2.6 h
[15]; [21]
  AUC24: 50.4 µM·h
  Cmax: 7.12 µM
[15]; [22]
  AUC24: 350 µM·h
  Cmax: 38 µM
[15]; [23]
  AUC24: 1910 µM·h
  Tmax: 6.7 h
[15]; [24]
  AUC24: 747 µM·h
  Cmax: 43.6 µM
  Tmax: 2.8 h
[16]; [25]
  AUC24: 520 µM·h
  Cmax: 59.5 µM
[16]; [26]
  AUC24: 1570 µM·h
  Cmax: 206 µM
[16]; Male dogs, 100/300 mg/kg/day oral gavage, Day 90, median
  Tmax: 5.33 h
[16]; female, Beagle, dog, in vivo, po, 10 mg/kg/day
  Cmax: 23.6 µM
[16]; [27]
  AUC: 363 µM·h
  Cmax: 43.4 µM
[16]; female, beagle, dog, in vivo, po, 30 mg/kg/day
  Cmax: 43.4 µM
[16]; [28]
  AUC: 191 µM·h
  Cmax: 24.8 µM
[16]; male, Beagle, dog, in vivo, po, 30 mg/kg/day
  Cmax: 39.4 µM
[16]; [29]
  AUC: 335 µM·h
  Cmax: 39.4 µM
[17]; female, 30 mg/kg/day
  Tmax: 0.5 h
[17]; female, 30 mg/kg/day, AUC24, 30 mg/kg/day, female rats
  AUC: 43 µM·h
[17]; female, 30 mg/kg/day, AUC24, Female rats, 30 mg/kg/day oral gavage, Day 28, mean (SD)
  AUC: 43.6 µM·h
[17]; female, 30 mg/kg/day, Cmax, Female rats, 30 mg/kg/day oral gavage, Day 28, mean (SD)
  Cmax: 21.6 µM
[17]; female, 30 mg/kg/day, Cmax, female rats
  Cmax: 21 µM
[17]; female, 2000 mg/kg/day
  Tmax: 8 h
[17]; female, 2000 mg/kg/day, AUC24, Female rats, 2000 mg/kg/day oral gavage, Day 28, mean (SD)
  AUC: 610 µM·h
[17]; male, 30 mg/kg/day
  AUC: 35 µM·h
  Cmax: 13 µM
  Tmax: 0.5 h
[17]; male, 30 mg/kg/day, Cmax, Male rats, 30 mg/kg/day oral gavage, Day 28, mean (SD)
  Cmax: 13.2 µM
[17]; male, 300 mg/kg/day, AUC24, Male rats, 300 mg/kg/day oral gavage, Day 28, mean (SD)
  AUC: 333 µM·h

Source: patent US11311522B1 (Cavion, Inc., priority 2018, dated 2022)
